The target of test [1] is T1, DOR and SSTR5 hetero-oligomer (Homo sapiens, UniProt P35346+P41143).
T1 construct: expressed in transfected cells
Description: Inhibition of FSK-stimulated cAMP, hSSTR5/DOR cotransfectants. Type of test: cell-based. The following applies: agonist alone or both agonists simultaneously.

Chains of the proteins cited; added tags and fusions are not shown. Lines headed by an entry give the natural chain unless they say otherwise; changes in a name come on top.
UniProt P35346: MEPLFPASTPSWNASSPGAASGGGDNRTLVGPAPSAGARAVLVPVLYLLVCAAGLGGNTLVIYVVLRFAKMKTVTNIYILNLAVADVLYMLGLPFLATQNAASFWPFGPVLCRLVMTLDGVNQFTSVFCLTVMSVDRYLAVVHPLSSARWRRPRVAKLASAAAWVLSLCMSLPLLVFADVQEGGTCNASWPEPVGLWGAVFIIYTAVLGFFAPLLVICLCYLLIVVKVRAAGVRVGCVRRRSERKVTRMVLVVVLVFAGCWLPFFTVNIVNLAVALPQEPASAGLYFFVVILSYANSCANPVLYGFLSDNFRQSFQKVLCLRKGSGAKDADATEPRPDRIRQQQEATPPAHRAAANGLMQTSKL
UniProt P41143, whole entry: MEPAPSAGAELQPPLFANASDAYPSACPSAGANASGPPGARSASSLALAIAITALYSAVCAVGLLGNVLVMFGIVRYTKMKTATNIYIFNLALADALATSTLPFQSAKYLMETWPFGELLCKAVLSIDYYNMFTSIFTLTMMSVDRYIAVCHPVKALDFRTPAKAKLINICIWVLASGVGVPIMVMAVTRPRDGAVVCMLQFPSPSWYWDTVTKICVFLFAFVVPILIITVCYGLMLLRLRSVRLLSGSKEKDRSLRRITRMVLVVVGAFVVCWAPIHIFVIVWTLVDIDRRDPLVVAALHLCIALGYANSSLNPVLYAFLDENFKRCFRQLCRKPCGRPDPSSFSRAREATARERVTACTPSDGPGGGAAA

A further test deals with wild type hSSTR5 and DOR (Homo sapiens, UniProt P35346+P41143).

This note sets out measurements from patent US20010053848A1, “Hetero-oligomeric G protein-coupled receptors as novel drug targets” (priority 2000, published 2001).

On to [D-Pen^2,5]-Enkephalin [DPDPE], for which the “maximum inhibition of FSK-stimulated cAMP” value in test [1] came to 32±3%. On wild type hSSTR5 and DOR ([125I] LTT SST-28 radioligand), the “effect on inhibition of radioligand binding induced by GTPγS” value is given as “potentiated”. For the same substance, the G-protein coupling efficiency at wild type hSSTR5 and DOR (enhancement by DOR ligand) was 2 fold.
